Legend:
BmoR A117T/F163Y = molecular target: T1, BmoR A117T/F163Y (Thauera butanivorans, UniProt A7MAQ9, A117T/F163Y); format: cell-based, E. coli XL10-Gold; conditions: read-out: Apparent Km; n = 3
T1 construct: full-length BmoR, biosensor plasmid pWT-A117T/F163Y (PbmoR-bmoR; Pbmo-gfp)
Procedure: (§1) The response values of the above colonies containing various BmoR mutants to n-pentanol, isopentanol, n-butanol or isobutanol were tested. The single colonies were pre-inoculated into 5 mL LB medium with 50 μg/mL carbenicillin and then cultured at 37 °C overnight. After that, 50 μL of the seed culture was transferred into 950 μL LB medium which was supplemented with appropriate antibiotics and 10 mM n-pentanol, isopentanol, n-butanol or isobutanol in 96-deep-well plates and the cultures were then left at 30 °C for 16 h. […] The excitation and emission wavelengths were set as 470 and 510 nm, respectively. The fluorescence values were normalized as the GFP/OD600 values. Besides, 1 mL of the culture was centrifuged at 5,000 rpm for 5 min. The supernatant was discarded, and the sediment was then resuspended in 2 mL of the physiological saline. 5 μL of the culture was spotted onto glass slides for fluorescence microscopy (UOP 2100). Fifteen colonies which only responded to 10 mM n-pentanol or isopentanol were screened out. The bmoRs in the 15 colonies were amplified and sequenced to identify the mutation sites. Finally, the bmoRs in the five colonies were mutated.
(§2) To obtain the response curves and measure the apparent Km values of BmoR mutants towards SMs, the pentanol concentrations in 96-deep-well plates ranged between 0 and 60 mM, and butanols concentrations ranged between 0 and 100 mM. […]

[1] = molecular target: T2, BmoR WT (fusion with sfGFP) (Thauera butanivorans, UniProt A7MAQ9); assay: MicroScale Thermophoresis of sfGFP-fused BmoR in E. coli BL21(DE3) lysate supernatant, 16-point ligand dilution in assay buffer with 1 % DMSO, incubated at 37 °C for 15 min.; format: binding; conditions: n = 3
T2 construct: SUMO-BmoR-TEV-sfGFP-His fusion, E. coli BL21(DE3) lysate supernatant
T2 sequence (A7MAQ9 1-669): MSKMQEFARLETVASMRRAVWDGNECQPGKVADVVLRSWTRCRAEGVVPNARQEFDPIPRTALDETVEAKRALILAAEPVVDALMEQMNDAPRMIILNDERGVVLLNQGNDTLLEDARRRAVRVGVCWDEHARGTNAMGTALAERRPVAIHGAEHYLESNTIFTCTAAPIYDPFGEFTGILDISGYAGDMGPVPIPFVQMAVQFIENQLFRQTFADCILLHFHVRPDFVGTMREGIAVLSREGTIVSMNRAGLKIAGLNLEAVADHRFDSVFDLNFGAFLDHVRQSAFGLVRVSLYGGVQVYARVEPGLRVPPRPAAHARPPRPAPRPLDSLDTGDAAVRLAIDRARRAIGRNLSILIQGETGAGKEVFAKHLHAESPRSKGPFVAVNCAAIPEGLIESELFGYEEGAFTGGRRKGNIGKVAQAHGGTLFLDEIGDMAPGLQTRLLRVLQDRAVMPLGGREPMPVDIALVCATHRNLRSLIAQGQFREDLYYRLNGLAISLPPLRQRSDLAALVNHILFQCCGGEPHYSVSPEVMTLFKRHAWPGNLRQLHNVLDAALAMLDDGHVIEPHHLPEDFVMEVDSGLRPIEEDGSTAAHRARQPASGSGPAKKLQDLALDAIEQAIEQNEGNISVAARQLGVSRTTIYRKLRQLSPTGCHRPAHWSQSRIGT
Procedure: Plasmids pWT-SUMO-BmoR-TEV-sfGFP-His, pWT-SUMO-BmoR^M94V/A117T/F163Y/F272L-TEV-sfGFP-His, and pWT-SUMO-BmoR^M94V/W128R/F272L-TEV-sfGFP-His were individually transformed into E. coli BL21(DE3). […] Subsequently, 100 µL of the seed culture was transferred to 100 mL LB medium and grown at 37 °C until the OD600 value reached 0.8. 0.1 mM IPTG was added into the culture, and the culture was incubated at 16 °C, 170 rpm for 12–18 h. 50 mL centrifuge tubes were used to centrifuge the culture at 5,000 rpm for 15 min to collect the cell pellets. The pellets were then resuspended in 15 mL of the binding buffer, and the cells were disrupted using the ultrasonic cell crusher. The mixture was then centrifuged at 10,000 rpm for 30 min to collect the supernatant. The Kd values of the wild-type BmoR and the mutants towards four SMs were measured by the MicroScale Thermophoresis (MST, Nanotemper) from Wuhan Bio-lab Biotechnology Co., Ltd.
A 10 µL aliquot of the supernatant was diluted three folds with the assay buffer. The MST sample chamber was opened, and the tray was removed. The diluted protein sample was aspirated using a capillary and placed in the corresponding slot of the tray. The information of the protein samples and assay bugger was input, and the type of capillary was selected. The excitation power was set to “Auto”, and MST power was set to “High”. […]

BmoR WT = molecular target: T3, BmoR WT (Thauera butanivorans, UniProt A7MAQ9); assay: Whole-cell BmoR biosensor dose-response (GFP/OD600, Pbmo-gfp reporter) in 96-deep-well plates with 0-60 mM pentanols or 0-100 mM butanols, LB medium at 30 °C, fitted to the Michaelis-Menten equation.; format: cell-based, E. coli XL10-Gold; conditions: read-out: Apparent Km; n = 3
T3 construct: full-length BmoR, expressed from biosensor plasmid (PbmoR-bmoR; Pbmo-gfp) in E. coli; hexamer
T3 sequence (A7MAQ9 1-669): T2 sequence (A7MAQ9 1-669)
Procedure: as §1, §2

**Q.** Which EC50 (BmoR A117T/F163Y) does the source give for 1-butanol [n-Butanol] here?
**A.** Its EC50 is 7.83 mM.

**Q.** What about the Kd [1] of the same substance?
**A.** Its Kd is 0.00125 mM.

**Q.** What about the EC50 (BmoR WT) of the same substance?
**A.** Its EC50 is 7.9 mM.
